# Assay results from PubChem BioAssay AID687016 (The Scripps Research Institute Molecular Screening Center, 2013).
# Chains of the proteins cited; added tags and fusions are not shown.
# UniProt Q96T88, whole entry: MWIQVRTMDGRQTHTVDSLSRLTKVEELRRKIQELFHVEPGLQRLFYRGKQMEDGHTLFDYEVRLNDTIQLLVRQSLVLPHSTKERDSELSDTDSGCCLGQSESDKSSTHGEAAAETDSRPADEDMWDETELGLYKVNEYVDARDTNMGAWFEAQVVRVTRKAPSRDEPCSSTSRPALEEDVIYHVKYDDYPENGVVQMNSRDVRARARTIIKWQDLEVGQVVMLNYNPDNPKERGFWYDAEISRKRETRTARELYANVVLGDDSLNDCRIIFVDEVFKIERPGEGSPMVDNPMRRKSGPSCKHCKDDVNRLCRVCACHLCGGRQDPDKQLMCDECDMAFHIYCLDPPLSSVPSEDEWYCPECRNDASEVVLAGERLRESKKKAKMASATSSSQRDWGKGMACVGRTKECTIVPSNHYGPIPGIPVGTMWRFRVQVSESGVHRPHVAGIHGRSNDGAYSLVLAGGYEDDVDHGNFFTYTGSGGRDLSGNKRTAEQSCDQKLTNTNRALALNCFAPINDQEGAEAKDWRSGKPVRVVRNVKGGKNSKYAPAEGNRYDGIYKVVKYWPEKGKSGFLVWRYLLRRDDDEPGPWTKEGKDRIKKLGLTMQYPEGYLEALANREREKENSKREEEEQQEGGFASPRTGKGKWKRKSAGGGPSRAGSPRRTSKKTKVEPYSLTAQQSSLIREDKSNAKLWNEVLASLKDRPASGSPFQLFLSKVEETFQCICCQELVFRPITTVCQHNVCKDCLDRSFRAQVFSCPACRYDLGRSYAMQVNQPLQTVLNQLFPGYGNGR
# The list shows a part of the results, in another mix than the full data. Active and inactive are the calls of the source. No stated cut-off is given here; in the data, active means inhibition above about 21%; inactive means the rest.
# Target: E3 ubiquitin-protein ligase UHRF1 (Homo sapiens) (UniProt Q96T88)
# Test: UHRF1 methylated DNA binding inhibitors, primary screen, counter-screen for MBD2 inhibitor project, biochemical, TR-FRET, human UHRF1, single concentration (AID 687016);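 further: UHRF1 SRA domain binding a hemimethylated CpG hairpin DNA probe; 0% = median of test compound wells and 100% = reference inhibitor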
# Conditions: UHRF1 binding to methylated oligo, at 4.4 µM, active compounds read high
row,Compound,inhibition
1,O=C(NCC1(N2CCCCC2)CCCCC1)c1cncc(Br)c1,inactive: -0.99%
2,CSc1ccc(C(=O)NCC2(N3CCOCC3)CCCCC2)cc1,inactive: -0.5%
3,O=C(NCC1(N2CCCCC2)CCCCC1)c1cccc([N+](=O)[O-])c1,inactive: -0.33%
4,CCN1CCC(Nc2ccc(Cl)cc2)CC1,inactive: 0.73%
5,O=c1[nH]c2ccccc2n1C1CCN(C(c2ccccc2OC(F)(F)F)c2nnnn2C2CCCC2)CC1 (centres undefined),inactive: 2.64%
6,N#CC1(Nc2ccccc2)CCN(CCc2ccccc2)CC1,inactive: -4.62%
7,CC(C)(C)n1nnnc1C(c1ccccc1OC(F)(F)F)N1CCC(n2c(=O)[nH]c3ccccc32)CC1 (centres undefined),inactive: -2.59%
8,O=C(NCC1(N2CCCCC2)CCCCC1)c1ccc(OC(F)F)cc1,inactive: 2.47%
9,CN1CCN(CCOC(=O)C(O)(c2ccccc2)c2ccccc2)CC1,inactive: -0.03%
10,COc1ccc(NC2CCN(C(=O)OC(C)(C)C)CC2)cc1,inactive: 0.1%
11,CC(C)c1ccc(C(=O)NCC2(N3CCOCC3)CCCCC2)cc1,inactive: 4.93%
12,CCCCn1nnnc1C(c1cccc2ccccc12)N1CCC(n2c(=O)[nH]c3ccccc32)CC1 (centres undefined),inactive: -0.48%
13,COc1cc(C(=O)NCC2(N3CCCCC3)CCCCC2)ccc1OC(F)F,inactive: -1.37%
14,O=C(NCC1(N2CCOCC2)CCCCC1)c1cc(=O)[nH]c2ccccc12,inactive: -0.4%
15,O=C(NCC1(N2CCCCC2)CCCCC1)c1cccc(C(F)(F)F)c1,inactive: -1.29%
16,O=P1(N(CCCl)CCCl)SCCCS1,inactive: 0.2%
17,CCCCn1nnnc1C(c1cc2ccccc2o1)N1CCC(n2c(=O)[nH]c3ccccc32)CC1 (centres undefined),inactive: -2.68%
18,CCCCOc1ccc(C(=O)NCC2(N3CCOCC3)CCCCC2)cc1,inactive: -1.01%
19,O=C(NCC1(N2CCCCC2)CCCCC1)c1ccc(F)cc1,inactive: -0.81%
20,COc1ccc(NC2CCN(CCc3ccccc3)CC2)c(OC)c1,inactive: -5.66%
21,CCOC(=O)N1CCC(Nc2ccc(F)cc2)CC1,inactive: -0.2%
22,CCOc1ccc(C)cc1CN(CCCl)CCCl,inactive: 1.78%
23,CC(C)(C)n1nnnc1C(c1ccccc1)N1CCC(n2c(=O)[nH]c3ccccc32)CC1 (centres undefined),inactive: 0.46%
24,O=C1CCN(Cc2ccccc2)CC1,inactive: 4.75%
25,O=c1[nH]c2ccccc2n1C1CCN(C(c2cccc3ccccc23)c2nnnn2C2CCCC2)CC1 (centres undefined),inactive: -1.3%

row,Compound,inhibition
1,CCOC(=O)N1CCC(Nc2cccc(C)c2)CC1,inactive: -2.28%
2,COc1cc(C(=O)NCC2(N(C)C)CCCCC2)ccc1OC(F)F,inactive: 4.32%
3,O=c1[nH]c2ccccc2n1C1CCN(C(c2ccccc2)c2nnnn2C2CCCCC2)CC1 (centres undefined),inactive: 3.15%
4,CSc1ccccc1C(=O)NCC1(N2CCCCC2)CCCCC1,inactive: 0.03%
5,Cc1cccc(NC2(C#N)CCN(Cc3ccccc3)CC2)c1,inactive: 3.19%
6,O=C(NCC1(N2CCCCC2)CCCCC1)c1ccc(=O)[nH]c1,inactive: -0.14%
7,CCCCn1nnnc1C(CC)N1CCC(n2c(=O)[nH]c3ccccc32)CC1 (centres undefined),inactive: 2.3%
8,O=C(NCC1(N2CCCCC2)CCCCC1)c1cccs1,inactive: 0.53%
9,CCCCn1nnnc1C(c1cccs1)N1CCC(n2c(=O)[nH]c3ccccc32)CC1 (centres undefined),inactive: -2.98%
10,COc1ccc(C(=O)NCC2(N3CCCCC3)CCCCC2)cc1,inactive: -1.42%
11,COc1ccc(C(=O)NCC2(N3CCCCC3)CCCCC2)c(OC)c1OC,inactive: -0.07%
12,CC(C)(C)OC(=O)N1CCC(N(C(=O)c2ccccc2)c2ccc(F)cc2)CC1,inactive: 0.77%
13,CCC(c1nnnn1C1CCCC1)N1CCC(n2c(=O)[nH]c3ccccc32)CC1 (centres undefined),inactive: -1.74%
14,CCOC(=O)N1CCC(Nc2ccc(OC)cc2)CC1,inactive: -1.91%
15,CCCCn1nnnc1C(c1ccc(OC)cc1)N1CCC(n2c(=O)[nH]c3ccccc32)CC1 (centres undefined),inactive: 0.59%
16,N#CC1(Nc2ccccc2)CCN(Cc2ccccc2)CC1,inactive: -0.51%
17,O=C(NCC1(N2CCCCC2)CCCCC1)c1ccc(Cl)s1,inactive: 3.33%
18,O=C(OC1CN2CCC1CC2)C1c2ccccc2Oc2ccccc21 (centres undefined),inactive: -2.83%
19,O=c1[nH]c2ccccc2n1C1CCN(C(c2cc3ccccc3o2)c2nnnn2C2CCCCC2)CC1 (centres undefined),inactive: 2.77%
20,COc1ccc(Cl)cc1C(=O)NCC1(N2CCOCC2)CCCCC1,inactive: -0.16%
21,O=C(NCC1(N2CCOCC2)CCCCC1)c1cc2ccccc2o1,inactive: 2.26%
22,O=C(NCC1(N2CCCCC2)CCCCC1)c1ccc(Cl)nc1,inactive: 8.4%
23,O=c1[nH]c2ccccc2n1C1CCN(C(c2ccccc2OC(F)(F)F)c2nnnn2C2CCCCC2)CC1 (centres undefined),inactive: -0.08%
24,Cc1cc(C)cc(N(C(=O)c2ccccc2)C2CCN(C(=O)OC(C)(C)C)CC2)c1,inactive: 0.55%
